Amino acid sequences for entries named in this document (tags omitted). Residues count along the entry.
UniProt Q9BUB5, 1-424 isoform 2 T344D: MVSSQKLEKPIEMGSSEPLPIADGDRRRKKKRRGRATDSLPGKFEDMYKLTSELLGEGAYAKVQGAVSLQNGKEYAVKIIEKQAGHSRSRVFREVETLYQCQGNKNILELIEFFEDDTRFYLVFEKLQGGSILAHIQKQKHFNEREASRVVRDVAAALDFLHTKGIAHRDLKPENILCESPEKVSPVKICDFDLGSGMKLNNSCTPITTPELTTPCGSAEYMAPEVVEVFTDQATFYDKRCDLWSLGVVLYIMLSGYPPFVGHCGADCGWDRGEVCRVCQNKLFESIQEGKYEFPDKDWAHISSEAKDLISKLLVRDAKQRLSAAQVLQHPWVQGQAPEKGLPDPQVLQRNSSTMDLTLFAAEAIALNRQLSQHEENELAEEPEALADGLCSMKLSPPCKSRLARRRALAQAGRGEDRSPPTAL

In US20150218173A1, “SUBSTITUTED INDAZOL-PYRROLOPYRIMIDINES USEFUL IN THE TREATMENT OF HYPERFOLIFERATIVE DISORDERS” (BAYER PHARMA AKTIENGESELLSCHAFT, priority 2012, published 2015):

Molecular target: human full-length MKNK1 (Homo sapiens, UniProt Q9BUB5, T385D)
Experiment: MKNK1 kinase high ATP assay (TR-FRET)
Details: read-out: MKNK1 IC50, high ATP (2 mM final), 15 min preincubation with enzyme
Description: MKNK1-inhibitory activity at high ATP of compounds of the present invention after their preincubation with MKNK1 was quantified employing the TR-FRET-based MKNK1 high ATP assay as described in the following paragraphs.
A recombinant fusion protein of Glutathione-S-Transferase (GST, N-terminally) and human full-length MKNK1 (amino acids 1-424 and T344D of accession number BAA 19885.1), expressed in insect cells using baculovirus expression system and purified via glutathione sepharose affinity chromatography, was purchased from Carna Biosciences (product no 02-145) and used as enzyme. As substrate for the kinase reaction the biotinylated peptide biotin-Ahx-IKKRKLTRRKSLKG (C-terminus in amide form) was used, which can be purchased e.g. from the company Biosyntan (Berlin-Buch, Germany). […]
The resulting mixture was incubated for 1 h at 22° C. to allow the formation of complex between the phosphorylated biotinylated peptide and the detection reagents. Subsequently the amount of phosphorylated substrate was evaluated by measurement of the resonance energy transfer from the Eu-chelate to the streptavidine-XL. Therefore, the fluorescence emissions at 620 nm and 665 nm after excitation at 350 nm were measured in a TR-FRET reader, e.g. a Rubystar (BMG Labtechnologies, Offenburg, Germany) or a Viewlux (Perkin-Elmer). […]

Row | IC50 | Structure (SMILES)
1 | 77 nM | Brc1cc2c(Nc3ccc4[nH]ncc4c3)ncnc2[nH]1
2 | 11 nM | CN(C)C(=O)c1cc2c(Nc3ccc4[nH]ncc4c3)ncnc2[nH]1
